According to patent US20240182596A1, “ANTI-NAPI2B ANTIBODIES AND ANTIBODY-DRUG-CONJUGATES BASED THEREON, THERAPEUTIC METHODS AND USES THEREOF” (Tubulis GmbH, priority 2022, published 2024):

System: FcγRI, FcγRIIa/CD32, FcγRIIIa/CD16
Test: Lumit FcγR Binding Immunoassays
Set-up: species or system human
Settings: competition with Tracer-LgBiT, n=1

Question: “trastuzumab: positive control in FcγR binding immunoassays [reference compound]” was tested. Which “Interaction with FcγR” value did it give?
Answer: reduced interaction with all FcγR compared to the positive control
